Target: T1, Recombinant human cathepsin S (CatS) (Homo sapiens, UniProt P25774)
T1 construct: made in house; host or cells: baculovirus system (insect cells)
Test: biochemical

Chains of the proteins cited; added tags and fusions are not shown. Residues count along the entry.
UniProt P25774, 115-331: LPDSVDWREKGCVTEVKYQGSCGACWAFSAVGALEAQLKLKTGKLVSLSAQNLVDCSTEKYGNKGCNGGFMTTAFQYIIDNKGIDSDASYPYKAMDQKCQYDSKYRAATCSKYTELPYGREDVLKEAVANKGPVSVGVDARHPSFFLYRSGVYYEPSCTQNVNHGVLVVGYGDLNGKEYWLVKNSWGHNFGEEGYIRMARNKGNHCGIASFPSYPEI

Row | SMILES | IC50 [nM]
1 | CS(=O)(=O)N1CCc2c(c(-c3ccc(C(F)(F)F)cc3)nn2CC(O)CN2CCC(c3nc4ccccc4s3)CC2)C1 (stereo not shown) [Example 114, 1-(4-Benzothiazol-2-yl-piperidin-1-yl)-3-[5-methanesulfonyl-3-(4-trifluoromethyl-phenyl)-4,5,6,7-tetrahydro-pyrazolo[4,3-c]pyridin-1-yl]-propan-2-ol] | 100
2 | CCNC(=O)N1CCc2c(c(-c3ccc(Cl)c(C)c3)nn2CC(O)CN2CCC(n3c(=O)[nH]c4ccccc43)CC2)C1 (stereo not shown) [Example 272, 3-(4-Chloro-3-methyl-phenyl)-1-{2-hydroxy-3-[4-(2-oxo-2,3-dihydro-benzoimidazol-1-yl)-piperidin-1-yl]-propyl}-1,4,6,7-tetrahydro-pyrazolo[4,3-c]pyridine-5-carboxylic acid ethylamide] | 330
3 | CS(=O)(=O)N1CCc2c(c(-c3ccc(C(F)(F)F)cc3)nn2CCCN2CCC(N3C(=O)NC4CCCCC43)CC2)C1 (stereo not shown) [Example 101, 1-(1-{3-[5-Methanesulfonyl-3-(4-trifluoromethyl-phenyl)-4,5,6,7-tetrahydro-pyrazolo[4,3-c]pyridin-1-yl]-propyl}-piperidin-4-yl)-octahydro-benzoimidazol-2-one] | 510
4 | CC(=O)N1CCc2c(c(-c3ccc(Cl)cc3)nn2CC(O)CN2CCC(Nc3cccc(Cl)c3)CC2)C1 (stereo not shown) [Example 213, 1-(3-(4-Chloro-phenyl)-1-{3-[4-(3-chloro-phenylamino)-piperidin-1-yl]-2-hydroxy-propyl}-1,4,6,7-tetrahydro-pyrazolo[4,3-c]pyridin-5-yl)-ethanone] | 1100
5 | CC(=O)N1CCc2c(c(-c3ccc(C(F)(F)F)cc3)nn2CC(O)CN2CCC(c3nc4ccc(C)cc4o3)CC2)C1 (stereo not shown) [Example 399, 1-[1-{2-Hydroxy-3-[4-(6-methyl-benzooxazol-2-yl)-piperidin-1-yl]-propyl}-3-(4-trifluoromethyl-phenyl)-1,4,6,7-tetrahydro-pyrazolo[4,3-c]pyridin-5-yl]-ethanone] | 510
6 | CCNC(=O)N1CCc2c(c(-c3ccc(C(F)(F)F)cc3)nn2CCCN2CCC(n3c(=O)n(C)c4ccccc43)CC2)C1 [Example 333, 1-{3-[4-(3-Methyl-2-oxo-2,3-dihydro-benzoimidazol-1-yl)-piperidin-1-yl]-propyl}-3-(4-trifluoromethyl-phenyl)-1,4,6,7-tetrahydro-pyrazolo[4,3-c]pyridine-5-carboxylic acid ethylamide] | 240
7 | CC(=O)N1CCc2c(c(-c3ccc(Br)cc3)nn2CC(O)CN2CCC(n3c(=O)[nH]c4cccc(Cl)c43)CC2)C1 (stereo not shown) [Example 286, 1-(1-{3-[5-Acetyl-3-(4-bromo-phenyl)-4,5,6,7-tetrahydro-pyrazolo[4,3-c]pyridin-1-yl]-2-hydroxy-propyl}-piperidin-4-yl)-7-chloro-1,3-dihydro-benzoimidazol-2-one] | 210
8 | CC(=O)N1CCc2c(c(-c3ccc(Br)cc3)nn2CC(O)CN2CCC(n3c(=O)oc4ccc(Cl)cc43)CC2)C1 (stereo not shown) [Example 386, 3-(1-{3-[5-Acetyl-3-(4-bromo-phenyl)-4,5,6,7-tetrahydro-pyrazolo[4,3-c]pyridin-1-yl]-2-hydroxy-propyl}-piperidin-4-yl)-5-chloro-3H-benzooxazol-2-one] | 370
9 | CC(=O)N1CCc2c(c(-c3ccc(Cl)c(C)c3)nn2CC(O)CN2CCC(n3c(=O)n(CCO)c4ccccc43)CC2)C1 (stereo not shown) [Example 308, 1-(1-{3-[5-Acetyl-3-(4-chloro-3-methyl-phenyl)-4,5,6,7-tetrahydro-pyrazolo[4,3-c]pyridin-1-yl]-2-hydroxy-propyl}-piperidin-4-yl)-3-(2-hydroxy-ethyl)-1,3-dihydro-benzoimidazol-2-one] | 130
10 | CS(=O)(=O)N1CCc2c(c(-c3ccc(C(F)(F)F)cc3)nn2CC(O)CN2CCC(N3c4cc(Cl)ccc4NS3(=O)=O)CC2)C1 (stereo not shown) [Example 133, 1-[4-(6-Chloro-2,2-dioxo-2,3-dihydro-2λ^6-2,1,3-benzothiadiazol-1-yl)-piperidin-1-yl]-3-[5-methanesulfonyl-3-(4-trifluoromethyl-phenyl)-4,5,6,7-tetrahydro-pyrazolo[4,3-c]pyridin-1-yl]-propan-2-ol] | 150

Source: patent US6953793B2 (priority 2000, dated 2005)
